Measurements published in PMC3750051, “A New Class of Rhomboid Protease Inhibitors Discovered by Activity-Based Fluorescence Polarization” (PLoS ONE, 2013).

Experiments:
GlpG from E. coli = GlpG from E. coli (Escherichia coli, UniProt P09391); assay: Gel-based labeling of rhomboid by fluorescent activity-based probes; type: biochemical; settings: 1 µM probe, 45 nM GlpG WT or inactive S201A mutant, 30 min
[1] = test system: mouse metabolic serine hydrolases; settings: cited from earlier work

## CCOP(=O)(F)CCCCCCCCCCNC(=O)c1ccc(-c2c3ccc(=[N+](C)C)cc-3oc3cc(N(C)C)ccc23)c(C(=O)[O-])c1 (centres unmarked)
GlpG from E. coli
  activity-based labeling of GlpG by the probe: labeled wild-type (WT) GlpG from E. coli, but not the inactive S201A mutant
[1]
  fraction of mouse metabolic serine hydrolases that react with the probe: 82%
